The results in this text go back to patent US11566039B2, “Lincosamide antibiotics and uses thereof” (President and Fellows of Harvard College, priority 2017, dated 2023).

The test system of the experiment is E. faecalis UNT-047 VRE. As to the kind of experiment: microbe, parasite or virus in culture. The conditions noted are these: Enterococcus faecalis.

In turn, `CCC[C@@H]1C[C@@H](C(=O)N[C@@H]([C@H]2O[C@H](SC)[C@H](O)[C@@H](O)[C@H]2O)[C@H](C)Cl)N(C)C1` [Clindamycin, clindamycin, reference compound] came in with an MIC greater than 32 µg/mL.
